Test results reported in PubChem BioAssay (NCI).
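Cultured in 96-well plates, cells were exposed to test compound for 48 hours across five concentrations. TGI: concentration producing complete growth inhibition.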

Assays:
Test in all cases: NCI-60 cell line screen, 48 h
CAKI-1 renal = test system: CAKI-1 renal
UACC-257 melanoma = test system: UACC-257 melanoma
OVCAR-4 ovarian = test system: OVCAR-4 ovarian
UACC-62 melanoma = test system: UACC-62 melanoma
OVCAR-8 ovarian = test system: OVCAR-8 ovarian
SR leukemia = test system: SR leukemia
SK-MEL-28 melanoma = test system: SK-MEL-28 melanoma
TK-10 renal = test system: TK-10 renal
OVCAR-5 ovarian = test system: OVCAR-5 ovarian
KM12 colon = test system: KM12 colon
XF 498 CNS = test system: XF 498 CNS
DMS 273 small cell lung = test system: DMS 273 small cell lung
NCI-H522 lung = test system: NCI-H522 lung
SK-MEL-5 melanoma = test system: SK-MEL-5 melanoma
A549 NSCLC = test system: A549 NSCLC
HOP-62 NSCLC = test system: HOP-62 NSCLC
RPMI-8226 leukemia = test system: RPMI-8226 leukemia
SW-620 colon = test system: SW-620 colon
786-0 renal = test system: 786-0 renal
DLD-1 colon = test system: DLD-1 colon
NCI-H460 lung = test system: NCI-H460 lung
A498 renal = test system: A498 renal
HCT-116 colon = test system: HCT-116 colon
IGROV1 ovarian = test system: IGROV1 ovarian
SF-539 CNS = test system: SF-539 CNS
K-562 leukemia = test system: K-562 leukemia
SNB-78 CNS = test system: SNB-78 CNS
DMS 114 small cell lung = test system: DMS 114 small cell lung
HL-60(TB) leukemia = test system: HL-60(TB) leukemia
SF-295 CNS = test system: SF-295 CNS
HOP-18 NSCLC = test system: HOP-18 NSCLC
RXF-631 renal = test system: RXF-631 renal
M19-MEL melanoma = test system: M19-MEL melanoma
HOP-92 NSCLC = test system: HOP-92 NSCLC
HCC-2998 colon = test system: HCC-2998 colon
SNB-19 CNS = test system: SNB-19 CNS
OVCAR-3 ovarian = test system: OVCAR-3 ovarian
ACHN renal = test system: ACHN renal
U251 CNS = test system: U251 CNS
LXFL 529 NSCLC = test system: LXFL 529 NSCLC
SNB-75 CNS = test system: SNB-75 CNS
EKVX NSCLC = test system: EKVX NSCLC
KM20L2 colon = test system: KM20L2 colon
SN12C renal = test system: SN12C renal
M14 melanoma = test system: M14 melanoma
NCI-H23 lung = test system: NCI-H23 lung
RXF 393 renal = test system: RXF 393 renal
CCRF-CEM leukemia = test system: CCRF-CEM leukemia
MOLT-4 leukemia = test system: MOLT-4 leukemia
NCI-H322M lung = test system: NCI-H322M lung
SK-OV-3 ovarian = test system: SK-OV-3 ovarian
UO-31 renal = test system: UO-31 renal
SF-268 CNS = test system: SF-268 CNS
HCT-15 colon = test system: HCT-15 colon
HT29 colon = test system: HT29 colon

Measured: TGI

Cc1ccccc1NC1CC(C)(C)NC(C)(C)C1
> 100 µM: CAKI-1 renal | UACC-257 melanoma | OVCAR-4 ovarian | UACC-62 melanoma | OVCAR-8 ovarian | SR leukemia | SK-MEL-28 melanoma | TK-10 renal | OVCAR-5 ovarian | KM12 colon | XF 498 CNS | DMS 273 small cell lung | NCI-H522 lung | SK-MEL-5 melanoma | A549 NSCLC | HOP-62 NSCLC | RPMI-8226 leukemia | SW-620 colon | 786-0 renal | DLD-1 colon | NCI-H460 lung | A498 renal | HCT-116 colon | IGROV1 ovarian | SF-539 CNS | K-562 leukemia | SNB-78 CNS | DMS 114 small cell lung | HL-60(TB) leukemia | SF-295 CNS | HOP-18 NSCLC | RXF-631 renal | M19-MEL melanoma | HOP-92 NSCLC | HCC-2998 colon | SNB-19 CNS | OVCAR-3 ovarian | ACHN renal | U251 CNS | LXFL 529 NSCLC | SNB-75 CNS | EKVX NSCLC | KM20L2 colon | SN12C renal | M14 melanoma | NCI-H23 lung | RXF 393 renal | CCRF-CEM leukemia | MOLT-4 leukemia | NCI-H322M lung | SK-OV-3 ovarian | UO-31 renal | SF-268 CNS | HCT-15 colon | HT29 colon
